Results on three compounds are retold here after patent US9034887B2, “Dihydroorotate dehydrogenase as antifungal drug target and quinazolinone-based inhibitors thereof” (F2G Limited, priority 2008, dated 2015).

Protein sequences, listed by entry. Tags and fused reporters are not part of them. Residues count along the entry.
UniProt Q02127, 31-395 limits assumed: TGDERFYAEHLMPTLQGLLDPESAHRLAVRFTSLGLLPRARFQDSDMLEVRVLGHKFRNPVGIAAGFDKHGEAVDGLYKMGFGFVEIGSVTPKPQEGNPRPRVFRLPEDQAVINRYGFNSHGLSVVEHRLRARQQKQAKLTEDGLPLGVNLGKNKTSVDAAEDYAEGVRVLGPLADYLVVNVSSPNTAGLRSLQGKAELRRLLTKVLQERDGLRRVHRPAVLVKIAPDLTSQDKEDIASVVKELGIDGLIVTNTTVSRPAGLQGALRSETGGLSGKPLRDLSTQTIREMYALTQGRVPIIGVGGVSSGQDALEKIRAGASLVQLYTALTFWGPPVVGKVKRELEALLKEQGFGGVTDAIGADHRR

One may read the IC50 as the concentration needed to halve the response being measured.

The experiment deals with Recombinant DHODH from human (Homo sapiens, UniProt Q02127). Nature of the experiment: DHODH inhibition screen (DCIP reduction, 600 nm), human enzyme. The class given is biochemical.
The mark [1] stands for this setting: read-out: IC50 values for Compound Examples 1 to 15 identified from screens, Human, Table 3.
The mark [2] stands for this setting: read-out: IC50 values for DHODH inhibitors identified from screens, Human, Table 1, 34 minutes incubation.

Where two headings read alike, the source gives them in different places.

For `COc1ccccc1-n1c(SC(C)C)nc2cc(C)ccc2c1=O` [Compound Example 1, 2-Isopropylsulfanyl-3-(2-methoxy-phenyl)-7-methyl-3H-quinazolin-4-one], the half-inhibitory concentration (IC50) reads like this: under setting [1], 51.3 µM; under setting [2], 8.6 µM.
`COc1ccccc1-n1c(SC(C)C)nc2ccc(C)cc2c1=O` [Compound Example 2, 2-Isopropylsulfanyl-3-(2-methoxy-phenyl)-6-methyl-3H-quinazolin-4-one]: the IC50 under setting [1] turned out to be 6.54 µM and the half-inhibitory concentration (IC50) under setting [2] was greater than 128 µM.
On to `COc1ccccc1-n1c(SC(C)C)nc2cccc(C)c2c1=O` [Compound Example 3, 2-Isopropylsulfanyl-3-(2-methoxy-phenyl)-5-methyl-3H-quinazolin-4-one], for which the IC50 under setting [1] turned out to be 40.2 µM and the IC50 under setting [2] was greater than 133 µM.
